Curated experimental data: water solubility values

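OPERA's authors assembled the values from existing databases and did not measure them anew. One number stands for a compound and property, with no spread given. Method, purity and exact conditions of the single measurements are not given. A value may pool stereoisomers or salt forms, and the file does not say which form was measured. Some entries may be limits or estimates that an upstream database listed as plain numbers.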

Water solubility is log10 of mol/L, nominally at 25 °C; higher is more soluble. Cells with "n/a" have no entry in this list.

compound,name,log S (log10 mol/L)
CN1CCN(CCCN2c3ccccc3Sc3ccc(S(=O)(=O)N(C)C)cc32)CC1,Thioproperazine,-3.895
COc1ccc(C(=O)Nc2ccccc2)cc1N=Nc1c(O)c(C(=O)Nc2ccc3[nH]c(=O)[nH]c3c2)cc2ccccc12,C.I. Pigment Red 176,-8.479
CSc1nc2ncncc2[nH]1,"9H-Purine, 8-(methylthio)-",-2.033
COc1cnc2cncnc2n1,n/a,-0.91
OCCN1C[C@H](O)[C@@H](O)[C@H](O)[C@H]1CO,Miglitol,0.469
Cc1cc(C(C)(C)C)c(O)c(C)c1CC1=NCCN1,Oxymetazoline,-3.704
N.N.O=C(O)CCCCC(C(=O)[O-])C(=O)[O-].[Pt+2],n/a,-1.635
CCCCCCCCC(CCCCCC)C(=O)OCC(=O)Nc1ccc(-c2nn3nc(C(C)(C)C)c(Cl)c3[nH]2)cc1 (stereo unspecified),n/a,-8.166
COC(=O)CCN(CCC(=O)OC)c1ccc(N=Nc2c(Cl)cc([N+](=O)[O-])cc2Br)cc1,n/a,-7.1
CC(C)(c1ccccc1)c1ccc(Nc2ccc(C(C)(C)c3ccccc3)cc2)cc1,n/a,-7.782
COc1ccc2c(c1)C(CC#N)=CCC2,"(7-Methoxy-3,4-dihydronaphthalen-1-yl)acetonitrile",-3.624
O=c1n(CCCN2CCN(c3cccc(Cl)c3)CC2)nc2ccccn12,Trazodone,-3.108
CCOC(=O)CC(=O)c1ccccc1,Ethyl benzoylacetate,-2.201
CC(C)(C)c1ccc([I+]c2ccc(C(C)(C)C)cc2)cc1.F[P-](F)(F)(F)(F)F,Bis(4-tert-butylphenyl)iodanium hexafluorophosphate,-3.292
CC(=O)N[C@H]1[C@H]([C@H](O)[C@H](O)CO)OC(C(=O)O)=C[C@@H]1NC(=N)N,Zanamivir,-1.462
CCCCCC[C@@H](O)C/C=C\CCCCCCCC(=O)NCCCN(C)C,n/a,-3.559
Clc1ccc(Oc2cc(Cl)c(Cl)cc2Cl)c(Cl)c1,"2,2',4,4',5-pentachlorodiphenyl ether",-7.61
CCCCCCCCCCCC(=O)OC,Methyl dodecanoate,-4.69
CC(C)(C)c1n[nH]c(=O)n(N)c1=O,Diketometribuzin,-2.05
O=C(C=Cc1ccccc1)OCCc1ccccc1,Phenethyl cinnamate,-5.683
CCCCC(CC)COC(=O)CSCC(=O)OCC(CC)CCCC (stereo unspecified),"Acetic acid, 2,2'-thiobis-, 1,1'-bis(2-ethylhexyl) ester",-6.655
O=C(OC1CCCCC1)c1ccccc1O,Cyclohexyl 2-hydroxybenzoate,-4.586
CC(C)CCCCCCO,7-Methyl-1-octanol,-2.495
CC(C)(CO)Cc1ccccc1,Dimethyl phenylpropanol,-2.042
O=c1c2ccccc2[nH]c2cc3c(=O)c4c(Cl)c(Cl)ccc4[nH]c3cc12,"1,2-Dichloro-5,12-dihydroquinolino[2,3-b]acridine-7,14-dione",-7.067
CC1=CCS(=O)(=O)C1,"Thiophene, 2,5-dihydro-3-methyl-, 1,1-dioxide",-3.23
CC(C)c1cccc(C(C)CC=O)c1 (stereo unspecified),beta-Methyl-3-(1-methylethyl)benzenepropanal,-3.677
Cc1cnc(N)[nH]c1=O,"4(1H)-Pyrimidinone, 2-amino-5-methyl- (8CI)(9CI)",-1.489
Clc1cc(Oc2cc(Cl)c(Cl)c(Cl)c2Cl)c(Cl)c(Cl)c1Cl,"2,2',3,3',4,4',5,5'-Octachlorodiphenyl ether",-10.13
Cc1cc2nc3c(=O)[nH]c(=O)nc-3n(C[C@H](O)[C@H](O)[C@H](O)COP(=O)(O)O)c2cc1C,Riboflavin phosphate,-0.696
O=C(O)c1c(F)cc(Br)cc1F,"4-Bromo-2,6-difluorobenzoic Acid",-2.152
Nc1cc(-c2ccncc2)c[nH]c1=O,Amrinone,-1.524
O=C1CN(/N=C/C=C/c2ccc([N+](=O)[O-])o2)C(=S)N1,n/a,-3.956
CC(O)COc1ccc(C(C)(C)c2ccc(OCC(C)O)cc2)cc1 (stereo unspecified),Bisphenol A bis(2-hydroxypropyl) ether,-3.5
Cc1ccc(Nc2ccc(O)c3c2C(=O)c2ccccc2C3=O)c(S(=O)(=O)[O-])c1.[Na+],C.I. Acid Violet 43,-2.402
C=CC(=O)OCCC[Si](OC)(OC)OC,"2-Propenoic acid, 3-(trimethoxysilyl)propyl ester",-4.606
CCCOCOCCC,"Propane, 1,1'-[methylenebis(oxy)]bis-",-1.559
C/C(=C\c1csc(C)n1)[C@@H]1C[C@@H]2O[C@]2(C)CCC[C@H](C)[C@H](O)[C@@H](C)C(=O)C(C)(C)[C@@H](O)CC(=O)N1,Ixabepilone,-5.158
C[C@@H](SC(=S)S[C@H](C)C(=O)O)C(=O)O,"Propionic acid, 2-mercapto-, trithiocarbonate (2:1)",-1.911
O=C(O)Cc1ccc(Cl)cc1Cl,"2,4-Dichlorophenylacetic acid",-2.919
CCCOC(=O)CCC,"Butanoic acid, propyl ester",-1.92
CC(c1ccc(OC#N)cc1)c1ccc(OC#N)cc1,"4,4'-Ethylidenediphenyl dicyanate",-5.218
O=C1c2ccccc2C(=O)N1C[C@H](O)CNc1ccc(N2CCOCC2=O)cc1,n/a,-4.041
Cc1cc(C)c(Nc2ccc(Nc3c(C)cc(C)cc3C)c3c2C(=O)c2ccccc2C3=O)c(C)c1,C.I. Solvent Blue 104,-7.825
C/C=C/C/C=C/CCC(=O)[C@H]1O[C@H]1C(N)=O,Cerulenin,-2.145
COC(=O)N1c2ccccc2C=C(OC)c2ccccc21,"Methyl 10-methoxy-5H-dibenz[b,f]azepine-5-carboxylate",-4.733
C[Si](C)(C)O[Si](O[Si](C)(C)C)(O[Si](C)(C)C)O[Si](C)(C)C,Tetrakis(trimethylsiloxy)silane,-9.407
CCn1cc(C(=O)O)c(=O)c2ccc(-c3ccncc3)cc21,Rosoxacin,-3.46
C[C@H]1CN(C[C@H](Cc2ccccc2)C(=O)NCC(=O)O)CC[C@@]1(C)c1cccc(O)c1,Alvimopan,-4.707
CC1(C)OCC([C@H]2O[C@@H]3OC(C)(C)O[C@@H]3[C@H]2O)O1 (stereo partly drawn),".alpha.-D-Glucofuranose, 1,2:5,6-bis-O-(1-methylethylidene)-",-0.785

Source: data files of OPERA 2.9 (Mansouri et al.), github.com/kmansouri/OPERA.